This passage reports CL and CLint scaled results from ChEMBL document CHEMBL1938302, “Synthesis of novel histamine H4 receptor antagonists” (Bioorg Med Chem Lett, 2012).

In general, CLint scaled refers to a measure of how fast metabolising enzymes remove a compound, apart from limits set by blood flow. The low end stands for greater metabolic stability, the high end for faster metabolism.

Series [1] relates to Rattus norvegicus. Nature of the series: Clearance in rat at 3 mg/kg, sc. The arrangement: dose 3 mg/kg, route subcutaneous. The series is classed as ADME, organism-based. To be noted: in vivo.
Series [2] in a line: Intrinsic clearance in rat. The series is classed as ADME, organism-based. The conditions noted are these: in vivo.

Molecule `CN1CCN(C(=O)c2cc3cc(Cl)ccc3[nH]2)CC1` [JNJ-7777120] displayed a CL in series [1] of 968000 µL/min/mg. The intrinsic clearance (CLint scaled) in series [2] amounted to 968 mL/min/kg.
